These results are taken from PubChem BioAssay AID1230 (PCMD, 2008).

The chains behind the UniProt entries cited, without tags or fusion partners.
UniProt Q00987, whole entry, looked up: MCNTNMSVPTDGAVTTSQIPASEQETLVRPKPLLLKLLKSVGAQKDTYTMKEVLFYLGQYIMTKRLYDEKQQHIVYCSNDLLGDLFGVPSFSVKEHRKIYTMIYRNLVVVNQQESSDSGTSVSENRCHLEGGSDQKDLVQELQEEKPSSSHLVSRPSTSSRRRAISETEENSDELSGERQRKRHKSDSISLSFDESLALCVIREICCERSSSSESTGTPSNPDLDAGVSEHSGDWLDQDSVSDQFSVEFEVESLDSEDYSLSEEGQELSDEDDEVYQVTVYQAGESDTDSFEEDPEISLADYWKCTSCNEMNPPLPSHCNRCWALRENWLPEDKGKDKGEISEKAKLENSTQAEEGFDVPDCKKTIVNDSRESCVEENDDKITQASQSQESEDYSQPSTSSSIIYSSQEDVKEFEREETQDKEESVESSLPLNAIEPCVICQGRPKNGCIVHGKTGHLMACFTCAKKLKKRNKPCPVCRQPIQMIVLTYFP

Structures are written as SMILES. This is a selection; strong and weak results do not stand in their true shares. Activity calls are given as the source filed them.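 The calls were made as follows: active = signal enhancement of 30% or more; inactive = the rest.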

The target of this assay is E3 ubiquitin-protein ligase Mdm2 (Homo sapiens) (UniProt Q00987). In words: increase of MDM2 autoubiquitination reporter luminescence – cell-based, 1536-well, MDM2 E3 ligase inhibitor project, primary screen (AID 1230).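 Also: higher signal means inhibition of MDM2 E3 ligase activity.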 As to conditions: cell-based MDM2 ubiquitination luciferase reporter, 2 h; at 5 µM; active compounds read high; 0 = plate control, 100 = twice control, blank-subtracted. Put shortly:
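system = mammalian cells stably expressing self-ubiquitinating, self-degrading MDM2 E3–luciferase fusion | quantity = 2000 cells per well seeded | incubation = 4 h cell settling then 2 h compound exposure, 37 °C | signal = SteadyLite luminescence, 15 min reagent step | benchmarks = plate control and blank wells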
`Nc1cc(N)c2nonc2c1[N+](=O)[O-]`: the signal enhancement is inactive: -10.3%.

In the case of `CC(C)CC(=O)NC(Sc1ccc(Cl)cc1)C(Cl)(Cl)Cl` (centres undefined), the signal enhancement was inactive: -19.1%.

As for `Oc1ccccc1CNc1ccccn1`, the signal enhancement was inactive: -6.05%.

As for `O=C(NC(Sc1ccncn1)C(Cl)(Cl)Cl)c1ccccc1` (centres undefined), the signal enhancement is inactive: -1.06%.

Regarding `Cc1c2non([O-])c-2c(C)[n+](=O)[n+]1[O-]`, the signal enhancement was inactive: 16.5%.

Turning to `COc1ccccc1OP(=O)(Nc1ccc(C)cn1)Oc1ccccc1OC`, the signal enhancement was inactive: -16.6%.

As to `Cc1ccc(OP(=O)(Nc2nccs2)Oc2ccc(C)cc2)cc1`, the signal enhancement is inactive: -5.72%.

For the molecule `CN1CCCC(OC(=O)C(c2ccccc2)c2ccccc2)C1` (centres undefined), the signal enhancement was inactive: -12.8%.

With `Clc1ccc(Cl)c(NC2=NCC(CBr)S2)c1` (centres undefined), the signal enhancement was inactive: -7.95%.

As for `NC(=O)c1cc([N+](=O)[O-])cc([N+](=O)[O-])c1N`, the signal enhancement is inactive: 15.5%.

Regarding `Cc1ccc(N/C(=N/P(=O)(N2CCOCC2)N2CCOCC2)N2CCOCC2)cc1`, the signal enhancement is inactive: 1.06%.

On to `CCN(N=Nc1nonc1N)c1nonc1N`, for which the signal enhancement was inactive: -5.79%.

Consider `Nc1cccc2ccc([As](=O)(O)O)cc12`, for which the signal enhancement was inactive: -14.3%.

With `Cc1cc(SC(NC(=O)c2ccc(F)cc2)C(Cl)(Cl)Cl)ncn1` (centres undefined), the signal enhancement is inactive: -8.98%.

Consider `CCOP(=O)(Nc1ccccc1)OCC`, for which the signal enhancement was inactive: -17.7%.

Take `Cc1ccc(NP(=O)(Oc2ccccc2F)Oc2ccccc2F)nc1`: the signal enhancement was inactive: -7.19%.

As for `CC(=O)Nc1ccc([As](=O)(O)O)cc1`, the signal enhancement was inactive: -7.33%.

Regarding `O=C(O)c1ccccc1[As](=O)(O)O`, the signal enhancement was inactive: -12.1%.

On to `O=P(Nc1nc2ccc(Cl)cc2s1)(c1ccccc1)c1ccccc1`, for which the signal enhancement was inactive: -14.3%.

With `O=[N+]([O-])c1cccc(NC2=NCC(CBr)S2)c1` (centres undefined), the signal enhancement is inactive: -21.4%.

Turning to `O=C(O)CNc1ccc([As](=O)(O)O)cc1`, the signal enhancement is inactive: -12.8%.

For `CC(C)(C)C(=O)NC(Sc1ccncn1)C(Cl)(Cl)Cl` (centres undefined), the signal enhancement is inactive: -5.17%.

Regarding `O=[N+]([O-])c1ncn(CCn2ncnc2[N+](=O)[O-])n1`, the signal enhancement was inactive: -12%.

Regarding `O=C(Nc1cc([As](=O)(O)O)ccc1O)c1ccccc1`, the signal enhancement is inactive: -14.2%.

Take `CC(C)=N/N=C(\N)N[N+](=O)[O-]`: the signal enhancement is inactive: -9.47%.

As to `CN(C)C(=O)OCCc1n(C)cc[n+]1C`, the signal enhancement is inactive: 9.69%.

In the case of `CC1CCN(C(=O)Oc2c(Cl)cc(Cl)c3cccnc23)CC1`, the signal enhancement was inactive: 6.37%.

Consider `Nc1ccc([As](=O)(O)c2ccc(N)cc2)cc1`, for which the signal enhancement was inactive: -26%.

As to `C[N+]1=C2C=CC=CC=C2SC12C([N+](=O)[O-])=CC([N+](=O)[O-])=C[C-]2[N+](=O)[O-]` (centres undefined), the signal enhancement is inactive: -8.48%.

As to `CCN(/C(=N/P(=O)(N1CCOCC1)N1CCOCC1)N1CCOCC1)c1ccc(OC)cc1`, the signal enhancement was inactive: 0.95%.

Turning to `CC(=O)N1C2C3N(C(C)=O)C1C1N(C(C)=O)C(C(N1C(C)=O)N3C(C)=O)N2C(C)=O`, the signal enhancement is inactive: -20%.

Turning to `O=[N+]([O-])c1cccc2n[nH]nc12`, the signal enhancement was inactive: -15.4%.

Regarding `Cc1ccc(NP(=O)(Oc2ccccc2)Oc2ccccc2)nc1`, the signal enhancement was inactive: -20.1%.

On to `O=[N+]([O-])c1cc([N+](=O)[O-])c(CCNc2ccccc2)c([N+](=O)[O-])c1`, for which the signal enhancement was inactive: -12.5%.

With `CCc1nc2c(n1)c1c(non1O)c1c2no[n+]1[O-]`, the signal enhancement was inactive: -29%.

As to `COc1ccc(C2=NCC(CBr)S2)cc1` (centres undefined), the signal enhancement is inactive: -6.99%.

For the molecule `c1nnnn1CCn1cnnn1`, the signal enhancement is inactive: 3.71%.

Consider `O=P(Nc1nccs1)(c1ccccc1)c1ccccc1`, for which the signal enhancement is inactive: 8.81%.

Turning to `CC(C)C(=O)NC(Sc1ccccc1)C(Cl)(Cl)Cl` (centres undefined), the signal enhancement is inactive: -6.36%.

In the case of `C(Cc1nn[nH]n1)Cc1nn[nH]n1`, the signal enhancement was inactive: -1.3%.

Turning to `Nc1ccc([As](=O)(O)c2ccc([N+](=O)[O-])cc2)cc1`, the signal enhancement was inactive: -7%.

For `O=C(OC1CN2CCC1CC2)c1cccc(Cl)c1` (centres undefined), the signal enhancement is inactive: -1.95%.

For `O=[N+]([O-])c1ncn(CCn2cnc([N+](=O)[O-])n2)n1`, the signal enhancement is inactive: -1.31%.

`CC(=O)NC(SC(=S)N(C)C)C(Cl)(Cl)Cl` (centres undefined): the signal enhancement is active: 57.4%.

As to `O=[As](O)(c1ccccc1)c1ccc(O)cc1`, the signal enhancement was inactive: -7.87%.

`O=P(Nc1nc2ccccc2s1)(c1ccccc1)c1ccccc1`: the signal enhancement is inactive: -1.9%.

As to `C[C@H]1OP(=O)(Oc2ccccc2)[C@H](O)[C@H](O)[C@H]1N=[N+]=[N-]` (some centres undefined), the signal enhancement is inactive: 0.17%.

With `O=P(Nc1ccccn1)(c1ccc(Br)cc1)c1ccc(Br)cc1`, the signal enhancement was inactive: -4.24%.

As to `Cc1ccccc1OP(=O)(Nc1ccccn1)Oc1ccccc1C`, the signal enhancement was inactive: 2.3%.

With `O=c1c2cc([N+](=O)[O-])ccc2[nH]c2c([N+](=O)[O-])cc([N+](=O)[O-])cc12`, the signal enhancement is inactive: -57.6%.

For `CN(C)C(=O)Oc1noc2ccccc12`, the signal enhancement was inactive: 1.65%.

Consider `COC(=O)c1cc2c(s1)N=C(c1ccccc1)N(C)P2(=O)N1CCOCC1` (centres undefined), for which the signal enhancement was inactive: -8.82%.

Turning to `Cc1ccc(OP(=O)(Nc2ccccn2)Oc2ccc(C)cc2)cc1`, the signal enhancement is inactive: -4.39%.

`CC(=O)NC(SC(=S)N(CC(C)C)CC(C)C)C(Cl)(Cl)Cl` (centres undefined): the signal enhancement was inactive: -87.3%.

For `CCC(=O)N1C2C3N(C(=O)CC)C1C1N(C(=O)CC)C(C(N1C(=O)CC)N3C(=O)CC)N2C(=O)CC`, the signal enhancement is inactive: -50.4%.

`O=C(NC1CCS(=O)(=O)C1)NP(=S)(Oc1ccccc1)Oc1ccccc1` (centres undefined): the signal enhancement is inactive: -7.16%.

With `CCNC(=S)/N=C(\N)N[N+](=O)[O-]`, the signal enhancement was inactive: -9.77%.

On to `c1ccc(-c2nn[nH]n2)c(-c2nn[nH]n2)c1`, for which the signal enhancement was inactive: 11.7%.

Take `CCOC(=O)NC(Sc1ccccc1)C(Cl)(Cl)Cl` (centres undefined): the signal enhancement was inactive: -20.4%.

For the molecule `Cc1ccc(NP(=O)(Oc2cccc(C)c2)Oc2cccc(C)c2)nc1`, the signal enhancement is inactive: -11.9%.

As for `CC(=O)Nc1ccc([As](=O)(O)O)c(O)c1`, the signal enhancement was inactive: -9.44%.

With `CC(=O)Nc1ccc(Oc2c([N+](=O)[O-])cc([N+](=O)[O-])cc2[N+](=O)[O-])cc1`, the signal enhancement is inactive: -5.04%.

With `C[C@H]1OP(=O)(Oc2ccccc2)C[C@@H]2O[C@@H]21` (some centres undefined), the signal enhancement was inactive: 7.71%.

With `C[C@@H]1C=CCP(=O)(Oc2ccccc2)O1` (some centres undefined), the signal enhancement was inactive: 16.2%.
